Experimental data: patent US12384753B2, “17-beta-hydroxysteroid dehydrogenase type 13 inhibitors and methods of use thereof” (Enanta Pharmaceuticals, Inc., priority 2021, dated 2025)

Protein sequences, listed by entry. Tags and fused reporters are not part of them. Residues count along the entry.
UniProt Q7Z5P4, 20-300 limits assumed: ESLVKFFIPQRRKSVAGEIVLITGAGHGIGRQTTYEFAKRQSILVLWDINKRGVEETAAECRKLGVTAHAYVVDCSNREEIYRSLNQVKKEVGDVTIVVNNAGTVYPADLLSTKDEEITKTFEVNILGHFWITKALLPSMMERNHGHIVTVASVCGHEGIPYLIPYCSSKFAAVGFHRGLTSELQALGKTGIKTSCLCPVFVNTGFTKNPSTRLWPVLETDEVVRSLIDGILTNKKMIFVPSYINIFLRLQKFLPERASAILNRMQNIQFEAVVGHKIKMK

The compounds below were run against Recombinant human HSD17B13 (Homo sapiens (Human), UniProt Q7Z5P4) (assay: HSD17B13 rapid-fire mass spectrometry assay (RF/MS assay)). Conditions: inhibition of HSD17B13; LTB4 10 μM, NAD+ 0.5 mM, RT 3 h; IC50 ranges A-E.
Description: HSD17B13 rapid-fire mass spectrometry assay (RF/MS assay). Recombinant human HSD17B13 was expressed and purified from sf9 cells at Charles River Labs (Saffron Walden, UK). Leukotriene B4 (Catalog #71160-24-2) and 12-oxoleukotriene B4 (Catalog #20140) were purchased from Cayman Chemicals (Ann Arbor, Michigan.). NAD+ (Catalog #N8285), BSA (Catalog #A7030), DMSO (Catalog #D2650), and Tween-20 (Catalog #11332465001) were purchased from Sigma (St. Louis, MO). Formic acid (Catalog #28905) was from ThermoFisher Scientific and 384 deep well PP microplates (Catalog #784261) were from Greiner Bio-One. In a typical IC50 assay performed in a 384w PP microplate, test compounds (0-100 μM) were incubated with HSD17B13 (80 nM), LTB4 (10 μM), and NAD^+ (0.5 mM) in 10 μL assay buffer (20 mM Tris (pH 7.5), BSA (0.005%), and Tween-20 (0.01%)) at RT for 3 h. The assays were quenched by adding 20 μL of 0.15% aqueous formic acid and the plates were frozen at −80° C. RF/MS analysis was performed at PureHoney Technologies (Billerica, MA) on a RapidFire RF300 system (Agilent Technologies, Inc.) coupled to an API 4000 triple quadrupole mass spectrometer (Sciex) equipped with Agilent RapidFire cartridge type A (C4). The mobile phase was 0.09% formic acid and 0.01% trifluoracetic acid in water (Buffer A) and 0.09% formic acid and 0.01% trifluoracetic acid in 80% aqueous acetonitrile (Buffer B). The RapidFire method conditions were the following: 250 ms aspirate, 3000 ms load/desalt, 4000 ms elute, and 500 ms re-equilibrate. RF-MS/MS was performed in negative polarity (−4500 V), the source temperature was 650° C., and gas 1 and gas 2 settings for nitrogen were set to 50. The curtain gas and collision gas were also nitrogen and were set to 20 and 12, respectively. Leukotriene B4 (335.3) and 12-oxoLeukotriene B4 (333.3) SRM transitions were optimized with Discovery Quant software and extracted ion counts for these analytes were determined.
Data Analysis. HSD17B13 enzyme activity was measured as percent conversion of extracted ion counts and normalized to high and low controls to determine percent residual activity at various concentrations of test compounds. Data were fitted to normalized activity (variable slope) versus concentration fit in GraphPad Prism 7 to determine IC50. All experiments were run in duplicates.
By using above method, the inhibition of HSD17B13 was evaluated for the compounds of Formula (I). IC50 ranges are as follows: A=IC50<0.100 μM; B=0.100 μM<IC50<0.500 μM; C=0.500 μM<IC50<1 μM; D=1 μM<IC50<100 μM; E=IC50>100 μM

| IC50 [nM] | Structure (SMILES) |
| --- | --- |
| 500 to 1000 | COc1cc(C(=O)O)c(F)cc1NS(=O)(=O)c1cnn(-c2ccc(-c3ccc(C45CC6CC(CC(C6)C4)C5)cc3)cc2)c1 |
| < 100 | COc1cc(C(=O)O)c(F)cc1NS(=O)(=O)c1csc(-c2ccc(-c3ccc(C(F)(F)C(F)(F)F)cc3)c(OC)c2F)n1 |
| 1000 to 100000 | CN(c1ccc(C(=O)O)cc1N)S(=O)(=O)c1csc(-c2ccc(C3CCC(C)(C)CC3)cc2C(F)(F)F)n1 |
| < 100 | COc1cc(C(=O)O)c(F)cc1NS(=O)(=O)c1csc(-c2ccc(-c3ccc(C(F)(F)C(F)(F)F)cc3)c(OC(C)C)c2F)n1 |
| < 100 | COc1cc(C(=O)O)c(F)cc1NS(=O)(=O)c1csc(-c2ccc([C@H]3CC[C@@H](C(F)(F)F)CC3)c(OC)c2F)n1 |
| 100 to 500 | CC[C@H]1CC[C@H](c2ccc(-c3cccc(S(=O)(=O)Nc4ccc(C(=O)O)cc4OC)c3F)cc2)CC1 |
